Literature values, collected in patent US20040077540A1, “Compositions and methods for modulating physiology of epithelial junctional adhesion molecules for enhanced mucosal delivery of therapeutic compounds” (Nastech Pharmaceutical Company Inc., priority 2002, published 2004).

Tested on: pronase and papain
Settings: pH 7.2; cited from earlier work

Substance: insulin
- time to complete degradation by pronase and papain: 2 to 3 h
